Assay results published in patent US7235627B2, “Derivatives of GLP-1 analogs” (Novo Nordisk A/S, priority 1996, dated 2007).

What was measured:
[1] = Circular Dichroism (CD) at 222 nm as a function of peptide concentration (helix content); type: physicochemical; conditions: for content of α-helix (CD at 222 nm): 10 mM tris buffer, pH 8, 23° C.
Procedure: […]. For the GLP-1 derivatives forming partially structured micellar-like aggregates in aqueous solution the helix content remains constant above 30% at concentrations of 10 μM. The aggregated structured conformation is an inherent property of the derivative present in water or dilute aqueous buffer without the need for any additional structure-inducing components.

[2] = Protraction of GLP-1 derivatives after s.c. administration: plasma concentration by RIA; type: in vivo, pigs (50% Duroc, 25% Yorkshire, 25% Danish Landrace); conditions: healthy pigs, 0.5 nmol/kg sc, n=2

Substance | content of α-helix (CD at 222 nm) ([1]; 25 μM peptide) | content of α-helix (CD at 222 nm) ([1]; 1000 μM peptide) | helix content (CD) ([1]; at 500 μM concentration) | helix content (CD) ([1]; low peptide concentration, before the increase with concentration) | plasma concentration, % of the maximum concentration for the individual compound ([2]; 1 h after administration) [%] | plasma concentration, % of the maximum concentration for the individual compound ([2]; 2 h after administration) [%] | plasma concentration, % of the maximum concentration for the individual compound ([2]; 4 h after administration) [%] | plasma concentration, % of the maximum concentration for the individual compound ([2]; 6 h after administration) [%] | plasma concentration, % of the maximum concentration for the individual compound ([2]; 8 h after administration) [%] | plasma concentration, % of the maximum concentration for the individual compound ([2]; 10 h after administration) [%] | plasma concentration, % of the maximum concentration for the individual compound ([2]; 12 h after administration) [%] | plasma concentration, % of the maximum concentration for the individual compound ([2]; 24 h after administration) [%] | plasma concentration, % of the maximum concentration for the individual compound ([2]; 0.75 h after administration) [%]
GLP-1(7–37) | about 15% | 30–35% | 30–35% | 10–15% |  |  |  |  |  |  |  |  | 
Arg^34Lys^26(N^ε-(γ-glutamyl(N^α-tetradecanoyl)))-GLP-1(7–37)-OH [Example 43] |  |  |  |  | 39 | 71 | 93 | 100 | 91 | 59 | 50 | 17 | 
Arg^26,34Lys^38 -(N^ε-(ω-carboxypentadecanoyl))-GLP-1(7–38)-OH [Example 34] |  |  |  |  | 32 | 44 | 84 | 59 | 66 | 83 | 84 | 100 | 19
Arg^34Lys^26(N^ε-(γ-glutamyl(N^α-hexadecanoyl)))-GLP-1(7–37)-OH [Example 37] |  |  |  |  | 26 | 38 | 97 | 100 | 71 | 81 | 80 | 45 | 
